# Measured values taken from article PMC5177629, “Selective Estrogen Receptor Modulators: Cannabinoid Receptor Inverse Agonists with Differential CB1 and CB2 Selectivity” (Frontiers in Pharmacology, 2016).
# Protein sequences, listed by entry. Tags and fused reporters are not part of them.
# UniProt P21554, whole entry: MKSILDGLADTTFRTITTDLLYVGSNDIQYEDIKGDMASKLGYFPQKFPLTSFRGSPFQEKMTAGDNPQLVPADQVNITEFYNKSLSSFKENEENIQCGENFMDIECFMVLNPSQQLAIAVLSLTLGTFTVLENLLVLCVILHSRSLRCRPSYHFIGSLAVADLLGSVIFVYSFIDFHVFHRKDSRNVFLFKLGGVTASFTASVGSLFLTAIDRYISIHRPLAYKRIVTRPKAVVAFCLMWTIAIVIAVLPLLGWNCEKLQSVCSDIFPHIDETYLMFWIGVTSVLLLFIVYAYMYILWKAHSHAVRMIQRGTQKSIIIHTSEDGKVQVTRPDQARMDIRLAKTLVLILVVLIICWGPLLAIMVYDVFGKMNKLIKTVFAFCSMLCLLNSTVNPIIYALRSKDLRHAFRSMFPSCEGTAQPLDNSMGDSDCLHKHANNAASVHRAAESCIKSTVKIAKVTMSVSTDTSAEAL
# Molecular target: T1, human cannabinoid type-1 receptors (hCB1) (Homo sapiens, UniProt P21554)
# T1 construct: host or cells: CHO cells (CHO-hCB1), membranes or intact cells
# Test: Competition receptor binding with [3H]CP-55,940, CHO-hCB1 membranes
# Details: ratio of Ki hCB1 / Ki hCB2
# Method: In short, pellets were thawed on ice, combined in a 40 ml glass Dounce homogenizer and homogenized in 20 ml of cold buffer (50 mM HEPES at pH 7.4, 3 mM MgCl2, and 1 mM EGTA) using 10 strokes. Homogenates were then centrifuged at 40,000 × g for 10 min at 4°C. After discarding the supernatant, pellets were homogenized and centrifuged twice more. Final pellets were re-suspended in ice-cold 50 mM HEPES, pH 7.4, aliquoted and stored at -80°C for future use. Protein concentration was determined the same day, prior to freezing, using BCA^TM Protein Assay (Thermo Fisher Scientific, Waltham, MA, USA).
# The final volume of each sample was 1 ml, containing 50 mM Tris-HCl buffer (pH 7.4), 0.05% bovine serum albumin, 5 mM MgCl2, increasing concentrations of non-radioactive competing SERM ligands, and either 100 μg of CHO-hCB1 or 50 μg of CHO-hCB2 membrane homogenates. […] Each sample condition was performed in triplicate and allowed to reach equilibrium at room temperature for 90 min. Reactions were terminated by rapid vacuum filtration through Whatman GF/B glass fiber filters (Brandel, Inc.), followed by four 4 ml washes of ice-cold filtration buffer (50 mM Tris at pH 7.4 and 0.05% BSA). […] Final counts were determined using liquid scintillation spectrophotometry (Tri Carb 2100 TR Liquid Scintillation Analyzer, Packard Instrument Company, Meriden, CT, USA) after overnight incubation. […]
structure (smiles),measurement,value
"OCCOc1ccc(/C(=C(/CCCl)c2ccccc2)c2ccccc2)cc1 [OSP, ospemifene]",Selectivity (CB1/CB2),0.20
